How the values were obtained:
HLA-A*1101 = HLA-A*1101 (Homo sapiens, UniProt P04439, A114D/D185E/E176A/F33Y/L180Q/S129P/T187R); experiment: Purified HLA class I peptide binding assay, A*1101; conditions: binding affinity, HLA-A3 supermotif-bearing peptides
HLA-A*3101 = HLA-A*3101 (Homo sapiens, UniProt P04439, A270S/D185E/E176V/E277Q/F33T/G231S/G80R/H175R/I121M/I218V/I322F/K168Q/L300P/L318F/M331R/P217A/Q94H/R138Q/T323A/T345S/T97I/V358M); experiment: Purified HLA class I peptide binding assay, A*3101; conditions: binding affinity, HLA-A3 supermotif-bearing peptides
HLA-A*3301 = HLA-A*3301 (Homo sapiens, UniProt P04439, A270S/D185E/E176V/E277Q/E87N/F33T/G231S/H175R/I121M/I218V/I322F/K168Q/K210R/L300P/L318F/M331R/P217A/Q86R/Q94H/R138Q/T323A/T345S/T97I/V358M/Y195H); experiment: Purified HLA class I peptide binding assay, A*3301; conditions: binding affinity, HLA-A3 supermotif-bearing peptides
[1] = test system: A3-supertype alleles (A*0301, A*1101, A*3101, A*3301, and A*6801); experiment: A3-supertype cross-reactive binding (five alleles); parameters: species or system human
HLA-A*0301 = HLA-A*0301 (Homo sapiens, UniProt P04439); experiment: Purified HLA class I peptide binding assay, A*0301; conditions: binding affinity, HLA-A3 supermotif-bearing peptides
HLA-A*2402 = HLA-A*2402 (Homo sapiens, UniProt P04439, D101N/D140Y/D185E/E176V/E190D/F33S/G103R/G107R/I119L/I121M/I306V/K335N/L105A/L180Q/L300P/N151K/N90K/Q86E/Q94H/R106L/R138H/R89G/T104I/T345S/V100E/W191G/Y123F); experiment: Purified HLA class I peptide binding assay, A*2402; conditions: HLA-A24 motif-bearing peptides, Table XXVIa
HLA-A*6801 = HLA-A*6801 (Homo sapiens, UniProt P04439, A269V/D185E/E176V/E277Q/E87N/F33Y/G231S/I121M/I166T/I218V/L180W/L300P/L318F/N151K/P208A/P217A/Q86R/R169H/T345S); experiment: Purified HLA class I peptide binding assay, A*6801; conditions: binding affinity, HLA-A3 supermotif-bearing peptides; read-out: A*6801 nM

Row | SMILES | IC50 (HLA-A*1101) [nM] | IC50 (HLA-A*3101) [nM] | IC50 (HLA-A*3301) [µM] | No. of A3 Alleles Crossbound [1] | IC50 (HLA-A*0301) [nM] | IC50 (HLA-A*2402) [nM] | IC50 (HLA-A*6801) [nM]
1 | CC[C@H](C)[C@H](NC(=O)[C@@H](NC(=O)[C@H](C)N)C(C)C)C(=O)N[C@@H](CCC(=O)O)C(=O)N[C@H](C(=O)N[C@@H](CO)C(=O)N[C@@H](Cc1ccc(O)cc1)C(=O)N[C@H](C(=O)N[C@@H](CCCCN)C(=O)O)C(C)C)[C@@H](C)O | 63 | > 10000 | > 10 | 3 |  |  | 
2 | CC[C@H](C)[C@H](NC(=O)[C@@H](NC(=O)[C@H](C)N)C(C)C)C(=O)N[C@@H](CCC(=O)O)C(=O)N[C@H](C(=O)N[C@@H](CO)C(=O)N[C@@H](Cc1ccc(O)cc1)C(=O)N[C@H](C(=O)N[C@@H](CCCNC(=N)N)C(=O)O)C(C)C)[C@@H](C)O |  |  |  | 3 | > 10000 |  | 
3 | CC[C@H](C)[C@H](N)C(=O)N[C@@H](CCSC)C(=O)N1CCC[C@H]1C(=O)N[C@@H](CCCCN)C(=O)N[C@@H](C)C(=O)NCC(=O)N[C@@H](CC(C)C)C(=O)N[C@@H](CC(C)C)C(=O)N[C@H](C(=O)N[C@H](C(=O)O)[C@@H](C)CC)[C@@H](C)CC |  |  |  |  |  | 240 | 
4 | CC[C@H](C)[C@H](NC(=O)[C@H](CCC(N)=O)NC(=O)[C@H](CC(N)=O)NC(=O)[C@H](CC(=O)O)NC(=O)CNC(=O)[C@H](CC(C)C)NC(=O)[C@@H](N)CC(C)C)C(=O)N[C@@H](CCSC)C(=O)N1CCC[C@H]1C(=O)N[C@@H](CCCCN)C(=O)O |  | > 10000 | > 10 | 3 | 500 |  | 372
5 | CC(C)C[C@H](NC(=O)[C@H](CC(C)C)NC(=O)[C@H](CC(C)C)NC(=O)[C@H](Cc1ccccc1)NC(=O)[C@H](Cc1c[nH]cn1)NC(=O)[C@@H](NC(=O)[C@@H](N)CC(C)C)C(C)C)C(=O)N[C@@H](CCCCN)C(=O)O | 40 | > 10000 | > 10 | 3 |  |  | 
6 | CC(C)C[C@H](NC(=O)[C@H](CC(C)C)NC(=O)[C@H](CC(C)C)NC(=O)[C@H](Cc1ccccc1)NC(=O)[C@H](Cc1c[nH]cn1)NC(=O)[C@@H](NC(=O)[C@@H](N)CC(C)C)C(C)C)C(=O)N[C@@H](CCCCN)C(=O)N[C@@H](Cc1ccc(O)cc1)C(=O)O |  |  |  | 2 |  |  | 8000
7 | CC[C@H](C)[C@H](NC(=O)[C@@H](NC(=O)[C@@H]1CCCN1C(=O)[C@H](Cc1ccccc1)NC(=O)[C@H](Cc1ccccc1)NC(=O)[C@H](Cc1ccc(O)cc1)NC(=O)[C@@H](N)CCC(N)=O)C(C)C)C(=O)N[C@@H](Cc1ccccc1)C(=O)O |  |  |  |  |  | 100 | 
8 | CSCC[C@H](NC(=O)[C@@H](N)CO)C(=O)N[C@@H](CC(C)C)C(=O)N[C@@H](CCC(=O)O)C(=O)N[C@H](C(=O)N[C@@H](Cc1ccccc1)C(=O)N[C@@H](CCC(=O)O)C(=O)NCC(=O)N[C@@H](CCCCN)C(=O)O)C(C)C | 3.8 | 120 | 0.387 | 4 |  |  | 
9 | CSCC[C@H](NC(=O)[C@@H](N)CO)C(=O)N[C@@H](CC(C)C)C(=O)N[C@@H](CCC(=O)O)C(=O)N[C@H](C(=O)N[C@@H](Cc1ccccc1)C(=O)N[C@@H](CCC(=O)O)C(=O)NCC(=O)N[C@@H](CCCNC(=N)N)C(=O)O)C(C)C |  |  |  | 3 | 5500 |  | 
10 | CC[C@H](C)[C@H](NC(=O)[C@@H](NC(=O)[C@@H](NC(=O)[C@H](CO)NC(=O)[C@H](Cc1ccccc1)NC(=O)[C@H](CO)NC(=O)[C@@H](N)CO)[C@@H](C)O)[C@@H](C)O)C(=O)N[C@@H](CC(N)=O)C(=O)N[C@@H](CCCCN)C(=O)O |  |  | > 10 |  |  |  | 26
11 | CC[C@H](C)[C@H](NC(=O)[C@@H](NC(=O)[C@@H](NC(=O)[C@H](CO)NC(=O)[C@H](Cc1ccccc1)NC(=O)[C@@H](NC(=O)[C@@H](N)CO)C(C)C)[C@@H](C)O)[C@@H](C)O)C(=O)N[C@@H](CC(N)=O)C(=O)N[C@@H](CCCCN)C(=O)O | 8.2 |  | 9.67 | 3 | 20 |  | 5.7
12 | CC[C@H](C)[C@H](NC(=O)[C@@H](NC(=O)[C@@H](NC(=O)[C@H](CO)NC(=O)[C@H](Cc1ccccc1)NC(=O)[C@@H](NC(=O)[C@@H](N)CO)C(C)C)[C@@H](C)O)[C@@H](C)O)C(=O)N[C@@H](CC(N)=O)C(=O)N[C@@H](CCCNC(=N)N)C(=O)O | 6.3 | 62 | 0.088 | 5 |  |  | 6.7
